Measurements as given in patent US10456359B2, “Synergistic beverage composition” (Harsha Chigurupati, priority 2015, dated 2019).

What was measured:
Assay type in all cases: in vivo, Wistar albino rats
[1] = tested on: serum C-reactive protein (CRP); test: CNS/immunology study, serum CRP, alcohol 5 days; details: Pro: Protection (%), rats, alcohol 5 Day
Source text: (§1) For hangover, 1 day immunology parameter were considered and for CNS, 5 days immunology parameter were considered.

interleukin-12 (IL-12) = test: CNS/immunology study, serum IL-12, alcohol 5 days; details: Pro: Protection (%), rats, alcohol 5 Day
Source text: as §1

[2] = tested on: Monocyte chemoattractant protein-1 (MCP-1); test: CNS/immunology study, serum MCP-1, alcohol 5 days; details: Pro: Protection (%), rats, alcohol 5 Day
Protocol: (§2) The lowest detectable limit of the kit is 0.1 ng/ml (Wang L, Li Y, Chen J, et al. “Ischemic Cerebral Tissue and MCP-1 Enhance Rat Bone Marrow Stromal Cell Migration in Interface Culture.” Experimental Hematology, 30, 7, 2002, 831-836).
as §1

Interferon gamma (IFN-γ) = test: CNS/immunology study, serum IFN-gamma, alcohol 5 days; details: Pro: Protection (%), rats, alcohol 5 Day
Source text: Distilled ethanol was obtained from Bengal Chemicals, West Bengal, India. Biochemical kits like AST, ALT, ALP and total protein were obtained from Span Diagnostics Ltd. Surat, India. Rat IL-12 ELISA kit (Elabscience Biotechnology Co. Ltd, WuHan, P.R.C.), Rat CRP ELISA kit (BD Biosciences, USA), Rat IFN-gamma ELISA kit (Biolegend, San Diego, Calif.) Rat MCP-1 ELISA kit (Elabscience Biotechnology Co. Ltd, WuHan, P.R.C.). All the chemicals used in the present study were of analytical grade and obtained from the following companies: Sigma (St. Louis, Mo., USA), Merck (Mumbai, India), S D fine chemicals (Mumbai, India) and Qualigen (Mumbai, India).
as §1

[3] = tested on: interleukin-12 (IL-12) from brain homogenate; test: CNS study, IL-12 from brain homogenate, alcohol 5 days; details: Pro: Protection (%), rats, alcohol 5 Day
[4] = tested on: serum C-reactive protein (CRP); test: Hangover study, serum CRP, alcohol 1 day; details: 1 Day alcohol
Source text: as §1

[5] = tested on: Monocyte chemoattractant protein-1 (MCP-1) from brain homogenate; test: Hangover study, MCP-1 from brain homogenate, alcohol 1 day; details: 1 Day alcohol
[6] = tested on: Monocyte chemoattractant protein-1 (MCP-1); test: Hangover study, serum MCP-1, alcohol 1 day; parameters: concentration or dose not given beside the values; details: 1 Day alcohol
Protocol: as §2, §1

OC[C@@H](O)[C@@H](O)[C@H](O)[C@H](O)CO [0.5 Man, D-Mannitol]
CRP Pro [1]: 5.46% | IL12 Pro (interleukin-12 (IL-12)): 5.08% | MCP-1 Pro [2]: 5.29% | IFN-Gamma Pro (Interferon gamma (IFN-γ)): 1.58% | Brain IL12 Pro [3]: 4.92% | CRP Pro (Protection) [4]: 5.48% | Brain MCP-1 Pro (Protection) [5]: 3.49%

OC[C@@H](O)[C@@H](O)[C@H](O)[C@H](O)CO [1.2 Man, D-Mannitol]
CRP Pro [1]: 15.92% | IL12 Pro (interleukin-12 (IL-12)): 17.92% | MCP-1 Pro [2]: 7.56% | IFN-Gamma Pro (Interferon gamma (IFN-γ)): 6.54%

OC[C@@H](O)[C@@H](O)[C@H](O)[C@H](O)CO [2.5 Man, D-Mannitol]
CRP Pro [1]: 21.8% | IL12 Pro (interleukin-12 (IL-12)): 31.99% | MCP-1 Pro [2]: 34.88% | IFN-Gamma Pro (Interferon gamma (IFN-γ)): 15.06% | MCP-1 Pro (Protection) [6]: 22.75%
